Data as given in patent US9040533B2, “Oxime-substituted-quinoxaline-type piperidine compounds as ORL-1 modulators” (priority 2012, dated 2015).

Chains of the proteins cited; added tags and fusions are not shown.
UniProt P05177, whole entry, looked up: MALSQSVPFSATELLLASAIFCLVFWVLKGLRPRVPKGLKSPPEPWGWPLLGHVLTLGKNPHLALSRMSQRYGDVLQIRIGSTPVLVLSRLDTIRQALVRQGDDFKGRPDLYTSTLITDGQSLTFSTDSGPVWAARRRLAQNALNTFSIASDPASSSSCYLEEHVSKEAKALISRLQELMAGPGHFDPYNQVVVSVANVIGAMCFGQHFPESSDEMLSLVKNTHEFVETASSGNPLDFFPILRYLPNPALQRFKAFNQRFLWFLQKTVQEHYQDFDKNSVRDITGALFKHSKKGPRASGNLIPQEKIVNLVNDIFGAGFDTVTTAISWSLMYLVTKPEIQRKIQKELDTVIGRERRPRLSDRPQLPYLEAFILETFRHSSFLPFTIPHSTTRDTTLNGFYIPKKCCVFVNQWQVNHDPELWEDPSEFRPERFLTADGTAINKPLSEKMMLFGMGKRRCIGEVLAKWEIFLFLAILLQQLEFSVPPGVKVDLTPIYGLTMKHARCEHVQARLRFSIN
UniProt P11712, whole entry, looked up: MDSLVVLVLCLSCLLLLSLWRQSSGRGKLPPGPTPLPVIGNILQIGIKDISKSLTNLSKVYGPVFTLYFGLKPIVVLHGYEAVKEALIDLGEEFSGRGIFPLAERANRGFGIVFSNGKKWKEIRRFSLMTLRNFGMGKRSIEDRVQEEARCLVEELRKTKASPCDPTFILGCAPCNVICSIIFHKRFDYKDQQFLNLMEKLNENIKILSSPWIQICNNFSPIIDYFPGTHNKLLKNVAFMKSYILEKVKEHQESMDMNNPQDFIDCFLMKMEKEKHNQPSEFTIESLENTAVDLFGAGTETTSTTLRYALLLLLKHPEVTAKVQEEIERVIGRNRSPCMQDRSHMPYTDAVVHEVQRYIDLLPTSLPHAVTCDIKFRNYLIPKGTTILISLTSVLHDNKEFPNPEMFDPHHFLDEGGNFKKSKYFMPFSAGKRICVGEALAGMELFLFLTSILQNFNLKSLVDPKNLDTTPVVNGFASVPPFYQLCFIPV
UniProt P08684, whole entry, looked up: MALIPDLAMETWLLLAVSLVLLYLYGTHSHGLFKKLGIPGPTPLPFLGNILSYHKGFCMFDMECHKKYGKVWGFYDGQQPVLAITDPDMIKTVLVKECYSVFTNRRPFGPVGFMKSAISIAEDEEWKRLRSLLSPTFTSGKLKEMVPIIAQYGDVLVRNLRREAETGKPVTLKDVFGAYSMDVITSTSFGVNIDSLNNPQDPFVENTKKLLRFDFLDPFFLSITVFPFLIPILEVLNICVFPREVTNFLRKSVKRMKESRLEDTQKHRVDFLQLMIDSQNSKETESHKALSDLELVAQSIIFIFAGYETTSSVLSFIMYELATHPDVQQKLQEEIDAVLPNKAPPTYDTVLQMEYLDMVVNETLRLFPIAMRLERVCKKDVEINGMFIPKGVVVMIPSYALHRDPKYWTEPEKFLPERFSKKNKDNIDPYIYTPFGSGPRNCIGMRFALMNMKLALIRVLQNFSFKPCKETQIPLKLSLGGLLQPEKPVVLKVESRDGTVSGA
UniProt P33261, whole entry, looked up: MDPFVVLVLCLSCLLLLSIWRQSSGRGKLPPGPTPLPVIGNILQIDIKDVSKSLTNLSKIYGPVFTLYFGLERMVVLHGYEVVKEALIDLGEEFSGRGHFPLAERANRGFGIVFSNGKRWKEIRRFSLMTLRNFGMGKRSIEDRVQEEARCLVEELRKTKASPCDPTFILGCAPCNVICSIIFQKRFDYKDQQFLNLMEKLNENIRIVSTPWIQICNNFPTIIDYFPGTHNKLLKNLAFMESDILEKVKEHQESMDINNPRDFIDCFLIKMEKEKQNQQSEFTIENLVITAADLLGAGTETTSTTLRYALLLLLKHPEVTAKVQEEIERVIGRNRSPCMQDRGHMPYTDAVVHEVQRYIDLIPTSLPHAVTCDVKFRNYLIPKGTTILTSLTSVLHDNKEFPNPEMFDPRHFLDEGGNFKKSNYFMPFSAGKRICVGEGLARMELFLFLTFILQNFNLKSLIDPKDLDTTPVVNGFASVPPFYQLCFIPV
UniProt P10635, whole entry, looked up: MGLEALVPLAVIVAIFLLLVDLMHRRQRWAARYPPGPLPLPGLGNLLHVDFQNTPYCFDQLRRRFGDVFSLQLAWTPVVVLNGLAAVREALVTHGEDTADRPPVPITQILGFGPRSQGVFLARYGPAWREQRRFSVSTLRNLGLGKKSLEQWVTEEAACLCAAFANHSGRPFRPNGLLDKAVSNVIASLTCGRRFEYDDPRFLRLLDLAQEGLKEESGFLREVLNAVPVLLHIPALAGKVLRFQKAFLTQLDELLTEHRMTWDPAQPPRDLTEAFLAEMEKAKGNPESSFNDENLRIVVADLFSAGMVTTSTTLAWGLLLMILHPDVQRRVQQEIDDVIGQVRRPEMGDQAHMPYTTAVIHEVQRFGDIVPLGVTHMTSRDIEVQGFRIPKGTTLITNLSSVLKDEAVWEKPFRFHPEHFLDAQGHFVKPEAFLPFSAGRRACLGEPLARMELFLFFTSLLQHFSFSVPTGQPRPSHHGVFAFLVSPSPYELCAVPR

Key:
[1] = molecular target: CYP1A2 (Homo sapiens, UniProt P05177); assay: Cytochrome P450 inhibition in pooled human hepatic microsome, CYP1A2; conditions: read-out: Cytochrome P450 IC50 1A2
[2] = molecular target: CYP2C9 (Homo sapiens, UniProt P11712); assay: Cytochrome P450 inhibition in pooled human hepatic microsome, CYP2C9; conditions: read-out: Cytochrome P450 IC50 2C9
[3] = molecular target: CYP3A4 (Homo sapiens, UniProt P08684); assay: Cytochrome P450 inhibition in pooled human hepatic microsome, CYP3A4; conditions: read-out: Cytochrome P450 IC50 3A4
[4] = molecular target: CYP2C19 (Homo sapiens, UniProt P33261); assay: Cytochrome P450 inhibition in pooled human hepatic microsome, CYP2C19; conditions: read-out: Cytochrome P450 IC50 2C19
[5] = molecular target: CYP2D6 (Homo sapiens, UniProt P10635); assay: Cytochrome P450 inhibition in pooled human hepatic microsome, CYP2D6 (dextromethorphan O-demethylation); conditions: read-out: Cytochrome P450 IC50 2D6

Measured: IC50

C/C(=N\OCC(=O)O)c1nc2ccccc2n([C@H]2C[C@H]3CCC[C@@H](C2)N3CC[C@@H]2CC[C@H]3C[C@@H]2C3(C)C)c1=O
> 20 µM: all assays above
